# Experimental data published in USRE36744E, “Nasal administration of benzodiazepine hypnotics” (Ribogene, Inc., priority 1994, dated 2000).
# Assay: Comparative oral versus nasal pharmacokinetics of midazolam in dogs (plasma, GC assay)
# Type: in vivo, beagle dogs
# Details: nasal vs oral
# Protocol: The efficacy of oral versus nasal administration of midazolam was examined using the methodology of Example 1, but modified to allow at least three weeks between studies.
# Oral Administration Studies: Five mg equivalent of midazolam free base solution was given to each of four dogs with 50 ml of water. […] The plasma samples were stored frozen until GC assay for midazolam.
# Nasal Administration Studies: 55.6 milligrams of midazolam HCl powder was dissolved in 4 ml of distilled water. […] Air bubbles generated during mixing were removed by centrifugation. The pH of the solution was 3.62.
# Midazolam solution was sprayed, using a meter dose inhaler into both nostrils of the dogs. The dose given to each dog was 7.85, 7.89, 7.22, 5.61 mg free base. […] The plasma samples were frozen until GC assay for midazolam.
# GC Assay--for extraction, 0.5 ml of plasma, 100 μl of internal standard (100 ng/ml flurazepam in methanol) and 0.5 ml of 2N sodium hydroxide were vortexed for 5 seconds. Five ml of hexane was then added and the mixture was vortexed for one min. and centrifuges for 4 minutes. […] Fifty μl of hexane/isoamyl alcohol (80:20) was used for reconstitution.
# Midazolam in plasma was assayed by a Hewlett Packard model 5830A GC-EC. […] The temperatures for column, injector port and detector were 250°, 310° and 310° C., respectively. The flow rate for argon/methane (95:5) gas was 33 ml/min.
compound,measurement,value
Cc1ncc2n1-c1ccc(Cl)cc1C(c1ccccc1F)=NC2 [midazolam],Bioavailability after nasal versus oral administration,significant increase in bioavailability
